Target: T1, control Fc
T1 construct: Control protein in the Biacore, pull-down and spleen cell experiments
Assay: Biacore (SPR): control Fc as the immobilised comparison surface, Siglec-10Fc as analyte; value printed under the KD of CD24Fc
Procedure: To measure the interaction between CD24Fc and Siglec 10, we immobilized CD24Fc onto a CHIP and used Biacore to measure the binding of different concentrations of Siglec-10Fc. […] To determine whether CD24Fc is an agonist of Siglec G, the mouse counterpart of human Siglec 10, we stimulated CD24-/- spleen cells with CD24Fc, control Fc or vehicle (PBS) control for 30 minutes. Siglec G was then immunoprecipitated and probed with anti-phospho-tyrosine or anti-SHP-1.

B1: Siglec-10Fc (Fc fusion, human, UniProt Q96LC7 17-546, looked up)
chain: MDGRFWIRVQESVMVPEGLCISVPCSFSYPRQDWTGSTPAYGYWFKAVTETTKGAPVATNHQSREVEMSTRGRFQLTGDPAKGNCSLVIRDAQMQDESQYFFRVERGSYVRYNFMNDGFFLKVTALTQKPDVYIPETLEPGQPVTVICVFNWAFEECPPPSFSWTGAALSSQGTKPTTSHFSVLSFTPRPQDHNTDLTCHVDFSRKGVSAQRTVRLRVAYAPRDLVISISRDNTPALEPQPQGNVPYLEAQKGQFLRLLCAADSQPPATLSWVLQNRVLSSSHPWGPRPLGLELPGVKAGDSGRYTCRAENRLGSQQRALDLSVQYPPENLRVMVSQANRTVLENLGNGTSLPVLEGQSLCLVCVTHSSPPARLSWTQRGQVLSPSQPSDPGVLELPRVQVEHEGEFTCHARHPLGSQHVSLSLSVHYSPKLLGPSCSWEAEGLHCSCSSQASPAPSLRWWLGEELLEGNSSQDSFEVTPSSAGPWANSSLSLHGGLSSGLRLRCEAWNVHGAQSGSILQLPDKKGLIST
notes: The construct is named only as Siglec-10Fc; not shown: Fc part of Siglec-10Fc
In the case of B1, the Kd is reported as 16.2 µM.
